Screening results (PubChem)
Only some compounds are listed: those with a hit (about 2.1% of all), similar ones and a draw of the others.
A549 tox: kills or reduces viability of A549 cells in Nrf2 counter-screen; Potency, µM (series often up to 46 µM), for inactives: top-dose activity change, negative = cytotoxicity, most hits filed as inhibitors; A549 ARE-Fluc cells, CellTiter-Fluor viability, 18-24 h; 390,000 tested, 0.16% active; further: potency means the concentration at half of the fitted maximal effect; on the % scale 0 is the no-effect control and ±100 the full control effect
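A549 ARE_Fluc cells in 5% FBS OPTI-MEM were exposed to compounds in concentration-response for 18-24 h at 37 deg C. Viability was read by CellTiter-Fluor fluorescence (Ex 405/Em 525) after 30 min, before the luciferase read.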
GRP78 ERSR act: inducers of ER stress response in human glioma cells; U87-MG GRP78 promoter luciferase reporter, 16 h; Potency, µM, for the others: top-dose activation, actives largely listed as activators; 420,000 tested, 0.02% active; further: potency means the concentration at half of the fitted maximal effect; series mostly up to about 76 µM; % of control where 0% means no effect; nearly all actives have a fitted effect of over 35% in size
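ERSR induction read as luciferase luminescence (Bright-Glo, 10 min at room temperature) in stably transfected human U87-MG glioma cells exposed to compounds for 16 h, using GRP78 as sensor.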
TSG101-PTAP inh: blocks PTAP/TSG101 interaction to inhibit HIV-1 budding; Potency, µM (highest dose often 115 µM), for the others: top-dose activity change, negative = inhibition, actives largely listed as inhibitors; Fluorescence polarization, FITC-PTAP peptide / Tsg101 binding; Q99816; 340,000 tested, under 10 active; active means well fitted inhibition curve with a large enough effect in the main read-out, with a control signal flat, not every such curve was filed as active; inconclusive means small, poorly fitted or top-dose-only effect, or effect the other way, or a change in a side signal; inactive means no such curve, though single readings can be large or run the other way; further: potency means the concentration at half of the fitted maximal effect; % of control where 0% means no effect
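Tsg101 binding domain (10 uM final) was mixed with compound and a FITC-labeled PTAP peptide (50 nM final) in HEPES pH 7.5 buffer with NaCl, Tween 20, EDTA and TCEP; fluorescence polarization was read after 20 min at r.t.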
miR-21 FLuc: miR-21 reporter, rising signal | HeLa miR-21 FLuc reporter, luciferase, 48 h | Potency, µM (highest dose often 38.3 µM), for inactives: at the top dose reporter change, positive = more light | 340,000 tested, under 10 active | AID 2288; active = well fitted rising curve with a large enough effect; inconclusive = small, poorly fitted or top-dose-only effect; inactive = no such curve, though single readings can be large or run the other way;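 further: % of control where 0% means no effect; miR-21 action dims this reporter so a rising signal means less miR-21 action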
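Luminescence from a firefly luciferase reporter carrying a miR-21 binding site downstream, stably expressed under a CMV promoter in HeLa cells that make miR-21 endogenously, reports miRNA modulation after 48 h compound exposure up to approximately 40uM final.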
Nrf2 ARE act: activators of Nrf2 (ARE) signaling | AREc32 ARE-luciferase reporter (MCF7-derived line), luminescence, 24 h | Potency, µM (doses to about 46.1 µM), for inactives: top-dose activation, usual class: activators | 410,000 tested, 0.31% active; further: potency means the concentration at half of the fitted maximal effect; % of control where 0% means no effect; nearly all actives have a fitted effect of over 65% in size
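For detection, Steady-Glo was added and plates sat 30 min at RT; before that, AREc32_Fluc cells grown overnight in OPTI-MEM/5% FBS had been treated with 23 nL compound for 24 hr at 37 deg C.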
Nrf2 inh: Nrf2 pathway inhibition. A549 ARE-Fluc reporter, luciferase luminescence, 18-24 h. Potency, µM (top dose mostly 46 µM), for the others: at the top dose activity change, negative = inhibition, most hits filed as inhibitors. 360,000 tested, 2.1% active; further: potency means the concentration at half of the fitted maximal effect; on the % scale 0 is the no-effect control and ±100 the full control effect; nearly all actives have a fitted effect of over 60% in size
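A549 ARE_Fluc cells, 5000/well, 5% FBS OPTI-MEM; compounds in dose-response, 18-24 h at 37 °C/5% CO2; CellTiter-Fluor viability read (Ex 405/Em 525), then BugLite luciferase luminescence = Nrf2 activity.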
* = called active by the depositor; ? = inconclusive; nt = no result given. Unless noted, the call rests on the fitted dose curve; in most records, active means well fitted curve in the direction sought with a large enough effect; inconclusive means small, poorly fitted or top-dose-only effect, or another doubt; inactive means no such curve, though single readings can be large; an effect the other way counts as inactive or inconclusive.

Screens in order – A549 tox	GRP78 ERSR act	TSG101-PTAP inh	miR-21 FLuc	Nrf2 ARE act	Nrf2 inh
> COC(=O)C1=C(c2ccc(-c3ccccc3)c(F)c2)C[C@@H]2CC[C@H]1N2C(=O)NCCOc1ccc(OC)cc1
 : -17.1%	-4.2%	-5.7%	nt	-0.6%	16.4µM*
> COC(=O)C1=C(c2ccc(OC(F)(F)F)cc2)C[C@@H]2CC[C@H]1N2C(=O)NCCNC(C)=O
 : 9.4%	1.2%	nt	nt	-0.4%	2.7%
> COC(=O)C1=C(c2ccc(-c3ccccc3)c(F)c2)C[C@@H]2CC[C@H]1N2C(=O)NCCc1ccccc1
 : ?	-3.6%	-2.6%	nt	-0.1%	?
> COC(=O)C1=C(c2ccc(-c3ccccc3)c(F)c2)C[C@@H]2CC[C@H]1N2C(=O)NCCNC(C)=O
 : -0.5%	2.0%	-1.7%	nt	3.1%	-19.6%
> COC(=O)C1=C(c2ccc(OC(F)(F)F)cc2)C[C@@H]2CC[C@H]1N2C(=O)NCCOc1ccc(OC)cc1
 : -22.0%	-5.8%	-1.6%	nt	3.4%	23.1µM*
> COC(=O)C1=C(c2ccc(-c3ccccc3)c(F)c2)C[C@@H]2CC[C@H]1N2C(=O)NCCCOC(C)C
 : -23.4%	-5.6%	-3.8%	nt	-0.4%	16.4µM*
> COC(=O)C1=C(c2ccc3ccccc3c2)C[C@@H]2CC[C@H]1N2C(=O)NCc1ccc(C(F)(F)F)cc1
 : -24.6%	0.3%	-6.9%	nt	-0.1%	23.1µM*
> COc1cc(CC(C)N)c(OC)cc1C (stereo not drawn)
 : nt	4.4%	nt	nt	nt	nt
> NC(Cc1ccc(Oc2cc(I)c(O)c(I)c2)c(I)c1)C(=O)O (stereo not drawn)
 : nt	-5.3%	nt	nt	nt	nt
> C=C1C(=O)O[C@@H]2C[C@@H](C)[C@@H]3C=CC(=O)[C@@]3(C)[C@@H](O)[C@H]12
 : 9.2µM*	-4.1%	1.0%	?	-2.9%	3.66µM*
> C=C1C(=O)O[C@@H]2C[C@@H](C)[C@@H]3C=CC(=O)[C@@]3(C)[C@@H](OC(C)=O)[C@H]12
 : 9.2µM*	-11.9%	-5.7%	?	-2.6%	4.11µM*
> c1ccc(CCN2CCCCC2)cc1
 : nt	-2.8%	nt	nt	nt	nt
> O=[N+]([O-])c1ccc(-[n+]2c(-c3ccccc3)cc(-c3ccccc3)cc2-c2ccccc2)cc1
 : 0.3%	-3.6%	-4.6%	6.8%	-1.7%	14.2%
> O=[N+]([O-])c1ccccc1-c1cc(-c2ccccc2)cc(-c2ccccc2)[n+]1Cc1ccccc1Cl
 : ?	0.0%	-1.0%	nt	-1.9%	20.6µM*
> CCN(CC)C(=O)c1ccc(NC(=O)Cn2nc(-c3ccc(C)cc3)c3ccccc3c2=O)cc1
 : -2.2%	-1.4%	nt	-0.4%	-0.8%	11.6%
> CCN(CC)C(=O)c1ccc(NC(=O)CCn2nc(-c3ccc(C)cc3)c3ccccc3c2=O)cc1
 : -22.1%	-4.7%	nt	23.7%	0.6%	18.4µM*
> COc1ccc(NC(=O)CCn2cnc3onc(-c4ccc(F)cc4)c3c2=O)cc1OC
 : -13.8%	-5.5%	nt	-1.6%	2.6%	23.1µM*
> COc1ccc(NC(=O)CCc2nc(C3=CCN(Cc4cccc(Cl)c4)CC3)no2)cc1OC
 : 0.5%	-2.7%	nt	-1.7%	3.1%	nt
> O=[N+]([O-])c1ccc(CN2CC=C(c3ccccc3)CC2)cc1
 : -2.2%	-3.0%	2.1%	-0.5%	0.3%	?
> C1=C(c2c[nH]c3ccccc23)CCN(Cc2ccccc2)C1
 : -6.5%	6.4%	0.0%	24.6%	7.1%	6.51µM*
> CCOc1cc(OP(=S)(OC)OC)nc(CC)n1
 : nt	-1.3%	nt	nt	nt	nt
> CC(=O)OC1C[C@H](O[C@@H]2C(O)C[C@H](O[C@@H]3C(O)C[C@@H](OC4CC[C@]5(C)C(CCC6C5CC(O)[C@@]5(C)C(C7=CC(=O)OC7)CC[C@@]65O)C4)OC3C)OC2C)O[C@H](C)[C@H]1O[C@H]1OC(CO)C(O)C(O)C1O (stereo partly drawn)
 : nt	-7.7%	nt	nt	nt	nt

A second format for some results above.
O=[N+]([O-])c1ccc(CN2CC=C(c3ccccc3)CC2)cc1
  A549 tox: -2.2% | GRP78 ERSR act: -3.0% | TSG101-PTAP inh: 2.1% | miR-21 FLuc: -0.5% | Nrf2 ARE act: 0.3% | Nrf2 inh: ?

COc1cc(CC(C)N)c(OC)cc1C (stereo not drawn)
  A549 tox: nt | GRP78 ERSR act: 4.4% | TSG101-PTAP inh: nt | miR-21 FLuc: nt | Nrf2 ARE act: nt | Nrf2 inh: nt
